Assay results reported in PubChem BioAssay AID602 (SRMLSC, 2007).
The list shows a part of the results, in another mix than the full data. Activity calls are given as the source filed them.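 The calls were made as follows: active = viability drop by adding the cancer drug above about 55%, with treated viability meeting a 40% cutoff (limit read from the data); inactive = the rest, inconclusive results apart.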

Assay: MRP1 drug-resistance reversers in H69AR cells – cell-based, doxorubicin co-treatment, primary screen (AID 602);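 also: viability without doxorubicin minus viability with 2 µM doxorubicin for each compound; larger differential means the compound sensitizes cells more to doxorubicin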
Details: H69AR cells + 2 uM doxorubicin, CellTiter-Glo, 72 h; at 10 µM; active compounds read high

Structure (SMILES) | differential viability (reversal)
O=C(OC1CN2CCC1CC2)C12CC3CC(CC(C3)C1)C2 (stereo not drawn) | inactive: 23.1%
COc1ccc(OP(C)(=O)Nc2cccc(F)c2)cc1 (stereo not drawn) | inactive: 8.24%
Cc1ccc(NP(C)(=O)Oc2ccccc2)c(C)c1 (stereo not drawn) | inactive: 19.7%
COc1ccccc1OP(C)(=O)Nc1ccc(C)cc1 (stereo not drawn) | inactive: -9.76%
ClCCSc1nnc(-c2cccnc2)o1 | inactive: 5.53%
CP(=S)(Nn1cnnc1)Oc1ccccc1 (stereo not drawn) | inactive: -7.41%
CP(=O)(Nc1ccccn1)Oc1ccc(Cl)cc1 (stereo not drawn) | inactive: 3.87%
CCC(C)N(CC(C)C)C(=S)SC(NC(C)=O)C(Cl)(Cl)Cl (stereo not drawn) | inactive: -12.2%
CCOP(C)(=S)SCC(=O)NC(C)C(=O)O (stereo not drawn) | inactive: 6.49%
CP(=O)(NC(=O)Nc1ccccc1)Oc1ccccc1 (stereo not drawn) | inactive: 3.82%
O=C(COc1ccccc1)OC1CN2CCC1CC2 (stereo not drawn) | inactive: -3.56%
COP1(=S)c2c(C)nn(CCC#N)c2N=C(c2ccc(F)cc2)N1C (stereo not drawn) | inactive: -20.8%
Cc1nc2ccc3ccccc3c2s1.O=[N+]([O-])c1cc([N+](=O)[O-])c(O)c([N+](=O)[O-])c1 | inactive: -5.61%
CC1(CBr)Cn2c(nc3ccccc3c2=O)S1 (stereo not drawn) | inactive: 6.53%
Clc1n[nH]nc1-c1nn[nH][15n]1 | inactive: 4.35%
O=P1(Nc2ccccn2)COc2ccccc2OC1 | inactive: -13.7%
O=P1(Nc2ccc(Br)cn2)COc2ccccc2OC1 | inactive: 7.27%
Cc1ccc(OCC(=O)OC2CN3CCC2CC3)cc1 (stereo not drawn) | inactive: -4.93%
O=P1(Nc2ncccn2)COc2ccccc2OC1 | inactive: -10.5%
COc1ccccc1OP(C)(=O)Nc1c(C)cccc1C (stereo not drawn) | inactive: 1.92%

Structure (SMILES) | differential viability (reversal)
Cc1nn(-c2ccccc2)c2c1P(=O)(N1CCOCC1)N(C)C(c1ccccc1)=N2 (stereo not drawn) | inactive: 9.41%
CCOP1(=S)c2c(C)nn(CCC#N)c2N=C(c2ccc(F)cc2)N1C (stereo not drawn) | inactive: -0.26%
CCOP1(=S)c2c(C)nn(CCC#N)c2N=C(c2ccccc2F)N1C (stereo not drawn) | inactive: -1.49%
Cc1ccc(C)c(NP(C)(=O)Oc2ccccc2)c1 (stereo not drawn) | inactive: -5.04%
Cc1cc(C)cc(OP(C)(=O)Nc2ccccn2)c1 (stereo not drawn) | inactive: -7.48%
Cc1cc(C)cc(OP(C)(=O)Nc2ccc(C)cc2C)c1 (stereo not drawn) | inactive: 12.8%
Cc1cccc(OCC(=O)OC2CN3CCC2CC3)c1 (stereo not drawn) | inactive: 0.07%
CP(=O)(Nc1ccccc1F)Oc1ccccc1 (stereo not drawn) | inactive: 3.46%
O=P1(Nc2nc3ccc(Cl)cc3s2)COc2ccccc2O1 (stereo not drawn) | inactive: 12.8%
CP(=O)(Nc1ccccc1)Oc1ccc(F)cc1 (stereo not drawn) | inactive: -3.8%
COC(=O)c1cc2c(s1)N=C(c1ccccc1)N(C)P2(=O)N1CCOCC1 (stereo not drawn) | inactive: -1.67%
CCN(CC)CCCOC(=O)C(O)(c1ccccc1)C1CCCCC1 (stereo not drawn) | inactive: -12.6%
O=C(OC1CN2CCC1CC2)c1cccc(Cl)c1 (stereo not drawn) | inactive: -7.38%
CN(C)CCOC(=O)C(O)(c1ccccc1)C1CCCCC1 (stereo not drawn) | inactive: 9.91%
Cc1ccccc1NP(C)(=O)Nc1ccccc1C | inactive: -13.5%
CP(=O)(Nc1ccc2c(c1)OCCO2)Oc1ccccc1 (stereo not drawn) | inactive: 1.42%
c1nnnn1CCn1cnnn1 | inactive: -1.27%
O=P(Nc1nccs1)(c1ccccc1)c1ccccc1 | inactive: 0.34%
CC1CCN(C(=O)Oc2c(Cl)cc(Cl)c3cccnc23)CC1 | inactive: 23.7%
CC(C)(C)c1ccc(OP(C)(=O)O)cc1 | inactive: -2.16%

Structure (SMILES) | differential viability (reversal)
CP(=O)(Nc1ccc(Cl)cc1)Oc1ccc(F)cc1 (stereo not drawn) | inactive: 6.95%
COc1ccccc1OP(C)(=O)Nc1c(C)n(C)n(-c2ccccc2)c1=O (stereo not drawn) | inactive: 5.41%
O=[N+]([O-])c1cccc2n[nH]nc12 | inactive: 4.66%
CCc1nc2c(n1)c1c(non1O)c1c2no[n+]1[O-] | inactive: 1.2%
CP(=O)(Oc1ccccc1)N1CCOC1=O (stereo not drawn) | inactive: 6.43%
CP(=O)(OC12CC3CC(CC(C3)C1)C2)OC12CC3CC(CC(C3)C1)C2 | inactive: 26.1%
Cc1nc2ccc3ccccc3c2o1.O=[N+]([O-])c1cc([N+](=O)[O-])c(O)c([N+](=O)[O-])c1 | inactive: 7.84%
COc1ccccc1OP(C)(=O)Nc1ccc(C)c(C)c1 (stereo not drawn) | inactive: 4.8%
CCOP(=O)(Nc1ccccc1)OCC | inactive: -2.08%
COc1ccccc1OP(C)(=O)Nc1ccc(C)cc1C (stereo not drawn) | inactive: 3.67%
CP(=O)(Nc1ccccn1)Oc1ccccc1 (stereo not drawn) | inactive: -13.3%
CCc1ccc(OP(C)(=O)O)cc1 | inactive: -15.5%
Cc1c(NP(C)(=O)Oc2ccc(C(C)C)cc2)c(=O)n(-c2ccccc2)n1C (stereo not drawn) | inactive: -15.9%
Cc1c2non([O-])c-2c(C)[n+](=O)[n+]1[O-] | inactive: -0.33%
Oc1ccccc1CNc1ccccn1 | inactive: 1.65%
COc1ccc(OP(C)(=O)Nc2ccccn2)cc1 (stereo not drawn) | inactive: -6.78%
CN(C)CCOC(=O)C(O)(c1ccccc1)C1CCCC1 (stereo not drawn) | inactive: 20.5%
CN1CCCC(OC(=O)C(c2ccccc2)c2ccccc2)C1 (stereo not drawn) | inactive: -5.9%
